Reference: patent US20090214547A1
Several values for one entry are separate records, joined by “and”; a condition that tells them apart may be missing. Equal values may be shown once.

Legend:
Peptide GNT-07 [1] = assay: peptide ELISA, plate 1
Peptide GNT-14 [2] = assay: peptide ELISA, plate 1 overview
Peptide GNT-13 [3] = assay: peptide ELISA, plate 1 overview
Peptide GNT-08 [4] = assay: peptide ELISA, plate 1 overview
Peptide GNT-062 = assay: peptide ELISA, plate 2 overview
Peptide GNT-14 [5] = assay: peptide ELISA, plate 2 overview
Peptide GNT-13 [6] = assay: peptide ELISA, plate 2 overview
Peptide GNT-10 = assay: peptide ELISA, plate 2 overview
Peptide GNT-08 [7] = assay: peptide ELISA, plate 2 overview
Peptide GNT-04 = assay: peptide ELISA, plate 2 overview
Peptide GNT-07 [8] = assay: peptide ELISA, plate 2

B1: 26-5F12.1 (antibody, V domains shown)
VH: VKLQESGAEVKKPGASVKVSCTASGYIFTSYAIHWVRQAPGQRLEWMGWINAGYGNTKYSQKFQGRVSITRDKSASTAYMELSSLRSEDTAVYYCARRGQQLAFDYWGQGTTVTVSS
VL: [about 100 residues omitted here]
Peptide GNT-07 [1]
  Elisa reading: 0.6 and 0.21 and 0.47
Peptide GNT-14 [2]
  Elisa reading: 0.09
Peptide GNT-13 [3]
  Elisa reading: 0.09
Peptide GNT-08 [4]
  Elisa reading: 0.89
Peptide GNT-062
  Elisa reading: 0.11
Peptide GNT-14 [5]
  Elisa reading: 0.09
Peptide GNT-13 [6]
  Elisa reading: 0.09
Peptide GNT-10
  Elisa reading: 0.09
Peptide GNT-08 [7]
  Elisa reading: 0.76
Peptide GNT-04
  Elisa reading: 0.26
Peptide GNT-07 [8]
  Elisa reading: 0.132
